Read-outs that look alike come from different tables or passages of the source.
Columns and labels:
[1] = target: plasma-membranous human MSLN on cell lines (H226, HPAC, H292, OVCAR-3, MeT-5A) (human) (UniProt Q13421); test: cELISA on H226 cells expressing human MSLN, detection with HRP-coupled anti-human IgG antibody, OD450-690 nm
[2] = target: biotinylated MSLN (human MSLN in the MSLN/MUC16 competition ELISA) (human) (UniProt Q13421); test: competition ELISA: biotinylated human MSLN (1 ng/ml) preincubated with the titrated antibody, added to coated MUC16, detection with streptavidin-polyHRP40; blocked ligand MUC16
[3] = target: biotinylated MSLN (human MSLN in the MSLN/MUC16 competition ELISA) (human) (UniProt Q13421); test: as above; remark: listed apart in the source
[4] = target: plasma-membranous human MSLN on cell lines (H226, HPAC, H292, OVCAR-3, MeT-5A) (human) (UniProt Q13421); test: cELISA on H226 cells expressing human MSLN, detection with HRP-coupled anti-human IgG antibody, OD450-690 nm; remark: listed apart in the source
[5] = target: cynomolgus monkey MSLN on recombinant CHO cell line (cynomolgus monkey); test: cELISA on CHO cells expressing cynomolgus monkey MSLN, detection with HRP-coupled anti-human IgG antibody, OD450-690 nm
[6] = target: plasma-membranous human MSLN on cell lines (H226, HPAC, H292, OVCAR-3, MeT-5A) (human) (UniProt Q13421); test: cELISA on H226 cells expressing human MSLN, detection with HRP-coupled anti-human IgG antibody, OD450-690 nm; remark: listed apart in the source

anti-MSLN reference antibody Amatuximab
EC50 (read off the curve) [1]: 0.1 nM
IC50 (read off the curve) [2]: 0.02 nM
IC50 (read off the curve) [3]: 0.01 nM
EC50 (read off the curve) [4]: 0.2 nM
EC50 (read off the curve) [5]: 0.4 nM
EC50 (read off the curve) [6]: 0.08 nM

From patent US20230203162A1
